Earlier results in patent US7604939B2, “Methods of identifying active BRM expression-promoting HDAC inhibitors” (The Regents of the University of Michigan, priority 2005, dated 2009).

Chains of the proteins cited; added tags and fusions are not shown.
UniProt Q13547, whole entry: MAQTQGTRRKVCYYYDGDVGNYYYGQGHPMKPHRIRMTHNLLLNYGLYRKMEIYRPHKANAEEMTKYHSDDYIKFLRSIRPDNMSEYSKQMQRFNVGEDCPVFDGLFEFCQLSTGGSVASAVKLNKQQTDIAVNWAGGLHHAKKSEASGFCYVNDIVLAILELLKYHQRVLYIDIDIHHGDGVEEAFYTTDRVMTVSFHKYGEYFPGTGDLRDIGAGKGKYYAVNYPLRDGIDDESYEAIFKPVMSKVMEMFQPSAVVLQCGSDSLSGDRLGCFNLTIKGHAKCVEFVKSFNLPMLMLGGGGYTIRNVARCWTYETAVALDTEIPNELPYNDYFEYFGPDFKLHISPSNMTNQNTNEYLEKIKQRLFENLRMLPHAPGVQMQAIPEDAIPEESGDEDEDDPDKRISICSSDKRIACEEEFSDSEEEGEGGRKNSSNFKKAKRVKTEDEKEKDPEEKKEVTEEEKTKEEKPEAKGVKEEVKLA

Experiments:
[1] = molecular target: HDAC1 (Homo sapiens, UniProt Q13547); conditions: Class 1 HDAC; cited from earlier work
[2] = molecular target: T1, HDAC8 (Homo sapiens, UniProt Q9BY41); conditions: Class 1 HDAC; cited from earlier work
T1 sequence (Q9BY41 1-377): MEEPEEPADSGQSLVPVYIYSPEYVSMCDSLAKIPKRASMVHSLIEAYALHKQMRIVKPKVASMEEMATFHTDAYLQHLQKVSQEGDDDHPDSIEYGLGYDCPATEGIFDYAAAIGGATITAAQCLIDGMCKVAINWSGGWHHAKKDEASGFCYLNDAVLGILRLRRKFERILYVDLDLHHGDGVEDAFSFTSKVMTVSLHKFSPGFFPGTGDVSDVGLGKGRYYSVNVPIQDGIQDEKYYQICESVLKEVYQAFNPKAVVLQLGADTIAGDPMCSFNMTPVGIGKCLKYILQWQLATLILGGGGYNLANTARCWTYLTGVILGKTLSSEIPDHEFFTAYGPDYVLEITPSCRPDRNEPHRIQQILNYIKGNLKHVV

Nc1ccccc1NC(=O)c1ccc(CNC(=O)OCc2cccnc2)cc1 [MS-275]
Sensitivity of HDAC1 to the inhibitor [1]: Yes | Sensitivity of HDAC8 to the inhibitor [2]: Yes
